# Values of other authors as cited in US5272175A, “Substituted tyrosyl diamide compounds” (priority 1992, dated 1993).
# Tested on: μ, κ and δ opioid receptors
# Conditions: central nervous system; cited from earlier work
structure (smiles),measurement,value
C=CCN1CC[C@]23c4c5ccc(O)c4O[C@H]2C(=O)CC[C@@]3(O)[C@H]1C5 [naloxone],affinity for all three opioid receptor categories,bind with high affinity to all three categories of opioid receptors
